This passage reports inhibition of corepressor binding results from PubChem BioAssay AID2300 (The Scripps Research Institute Molecular Screening Center, 2010).

Sequences of proteins named here, by UniProt entry; tags and fusion partners are left off. A change or cut given only in a name is not applied to a line headed by its entry.
UniProt Q9Y5X4: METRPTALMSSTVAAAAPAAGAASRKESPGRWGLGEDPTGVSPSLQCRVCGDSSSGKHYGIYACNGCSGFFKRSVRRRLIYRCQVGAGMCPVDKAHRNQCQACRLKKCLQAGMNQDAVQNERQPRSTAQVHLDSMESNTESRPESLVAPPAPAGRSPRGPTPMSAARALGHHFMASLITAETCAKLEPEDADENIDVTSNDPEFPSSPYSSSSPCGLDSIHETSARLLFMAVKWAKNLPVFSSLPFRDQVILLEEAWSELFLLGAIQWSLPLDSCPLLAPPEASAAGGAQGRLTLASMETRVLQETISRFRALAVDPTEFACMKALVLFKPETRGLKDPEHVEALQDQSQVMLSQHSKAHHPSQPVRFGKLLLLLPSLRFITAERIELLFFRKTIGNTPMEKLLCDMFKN

Only a part is listed here, and it is no random draw. Calls of active or inactive are those of the source.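 The calls were made as follows: active = percent inhibition above the cutoff of mean plus 3 SD of all tested compounds, set per screening campaign (cut at about 20% in these data); inactive = the rest.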

In the assay the target is Photoreceptor-specific nuclear receptor (Homo sapiens) (UniProt Q9Y5X4). Put plainly: inhibitors of NR2E3-RetCOR corepressor binding, primary screen, NR2E3 agonist project, biochemical, TR-FRET, GST-NR2E3, biotin-RetCOR (AID 2300).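 Also: 0% = DMSO wells and 100% = biotin wells as full block of FRET.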 Conditions: 1536-well, at 4.78 µM, active compounds read high. The gist of the method:
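Format: 1536-well format; test system: GST-NR2E3 and biotin-RetCOR proteins; read-out basis: percent inhibition of TR-FRET ratio; timing: 5 h incubation at 4 °C; detection: time-resolved FRET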
Take `CCOP(=O)(Nc1ccc(C)cn1)OCC`: the inhibition of corepressor binding is inactive: 1.13%.

For `CN(CCCl)Cc1cc(Cl)c(NC2=NCCN2)c(Cl)c1`, the inhibition of corepressor binding was inactive: -4.12%. For `CC(C)(C)C(=O)NC(Sc1ncccn1)C(Cl)(Cl)Cl` (configuration not stated) the value was inactive: 0.02%. For `Clc1n[nH]nc1-c1nn[nH][15n]1` the value was inactive: 1.71%; for `COc1ccccc1CNC(=O)COC(=O)C(O)(c1ccccc1)c1ccccc1`, inactive: -1.42%. Turning to `CN(C(=O)Cc1ccc(Cl)c(Cl)c1)[C@@H]1CCCC[C@H]1N1CCCC1`, the inhibition of corepressor binding was inactive: -1.06%. With `CC(C)/C=N\N=C(\N)N[N+](=O)[O-]`, the inhibition of corepressor binding is inactive: -0.3%. Consider `CC1(CBr)Cn2c(nc3ccccc3c2=O)S1` (configuration not stated), for which the inhibition of corepressor binding was inactive: 0.53%. Regarding `O=[As](O)(c1ccccc1Br)c1ccccc1Br`, the inhibition of corepressor binding was inactive: -2.8%. For `Cc1ccc(C(=O)OC2CN3CCC2CC3)cc1` (configuration not stated) the value was inactive: -0.74%; for `CC1CCC(C(C)C)C(OP(=O)(Nc2ccccn2)c2ccccc2)C1` (configuration not stated), inactive: -0.34%. With `Cc1nn(-c2ccccc2)c2c1P(=O)(N1CCOCC1)N(C)C(c1ccccc1)=N2` (configuration not stated), the inhibition of corepressor binding is inactive: 0.8%. Consider `CN(C)C1(CNC(=O)c2ccc(S(C)(=O)=O)cc2)CCCCC1`, for which the inhibition of corepressor binding was inactive: 0.62%. For `O=C(/C=C/c1ccccc1)OC1CN2CCC1CC2` (configuration not stated), the inhibition of corepressor binding was inactive: 0.59%. Take `O=P1(Nc2ncccn2)COc2ccccc2OC1`: the inhibition of corepressor binding is inactive: -0.03%.

Take `Nc1cccc([As](=O)(O)c2ccccc2)c1`: the inhibition of corepressor binding is inactive: 0.88%. Regarding `Cc1ccc(OCC(=O)OC2CN3CCC2CC3)cc1` (configuration not stated), the inhibition of corepressor binding is inactive: 2.45%.

As to `O=[As](O)(c1cccs1)c1cccs1`, the inhibition of corepressor binding was inactive: -0.57%. For `NS(=O)(=O)c1cccc(NC(=O)COC(=O)C(O)(c2ccccc2)c2ccccc2)c1` the value was inactive: 2.69%.

Regarding `O=P1(Nc2ccc(Br)cn2)COc2ccccc2OC1`, the inhibition of corepressor binding was inactive: 7.02%. Take `CCOC(=O)Nc1ccc([As](=O)(O)O)c(O)c1`: the inhibition of corepressor binding was inactive: -3.9%. Turning to `Cc1cc(SC(NC(=O)c2ccccc2)C(Cl)(Cl)Cl)nc(C(C)C)n1` (configuration not stated), the inhibition of corepressor binding is inactive: 1.49%.

`CCOC(=O)Nc1cccc([As](=O)(O)O)c1`: the inhibition of corepressor binding was inactive: -1.42%. On to `Cc1cc(SC(NC=O)C(Cl)(Cl)Cl)ncn1` (configuration not stated), for which the inhibition of corepressor binding is inactive: 2.21%. Take `O=P(Nc1ccccn1)(c1cccc2ccccc12)c1cccc2ccccc12`: the inhibition of corepressor binding was inactive: 0.19%.

With `COP1(=S)c2c(C)nn(CCC#N)c2N=C(c2ccc(F)cc2)N1C` (configuration not stated), the inhibition of corepressor binding is inactive: 0.97%. As for `O=C(Nc1ccncc1[N+](=O)[O-])c1ccc([N+](=O)[O-])cc1[N+](=O)[O-]`, the inhibition of corepressor binding is inactive: 0.37%.

On to `O=C(COc1ccccc1)OC1CN2CCC1CC2` (configuration not stated), for which the inhibition of corepressor binding was inactive: -1.94%.

With `O=C(OC1CN2CCC1CC2)c1cccc([N+](=O)[O-])c1` (configuration not stated), the inhibition of corepressor binding was inactive: 5.57%. Turning to `CCOC(=O)c1ccc(NC(=O)C(C)(CCl)SC)cc1` (configuration not stated), the inhibition of corepressor binding was inactive: 2.23%. Regarding `CCC(C)N(CC(C)C)C(=S)SC(NC(C)=O)C(Cl)(Cl)Cl` (configuration not stated), the inhibition of corepressor binding was inactive: -1.06%. In the case of `Cc1c2c(nc3ccccc13)SC(C(Cl)Cl)C2` (configuration not stated) it was inactive: -1.13%; in that of `Cc1cc(=O)[nH]c(N[N+](=O)[O-])n1`, inactive: 2.08%. Take `O=C(OC1CN2CCC1CC2)C12CC3CC(CC(C3)C1)C2` (configuration not stated): the inhibition of corepressor binding was inactive: -1.09%. On to `COc1cc(I)ccc1[As](=O)(O)O`, for which the inhibition of corepressor binding was inactive: -3.75%. `COc1ccc2nc(NP(=O)(c3ccccc3)c3ccccc3)sc2c1`: the inhibition of corepressor binding was inactive: -2.15%.

As for `COc1ccc(N/C(=N/P(=O)(N2CCOCC2)N2CCOCC2)N2CCOCC2)cc1`, the inhibition of corepressor binding was inactive: -0.93%. In the case of `COc1cc(C(=O)NCC2(N3CCOCC3)CCCCC2)ccc1OCC(C)C` it was inactive: 2.57%; in that of `O=[As](O)(c1ccc(O)cc1)c1ccccc1O`, inactive: 0.8%. For `C[As](=O)(O)c1cccc(C(=O)O)c1` the value was inactive: 1.41%; for `Cc1ccc(OP(=O)(Nc2ccc([N+](=O)[O-])cn2)Oc2ccc(C)cc2)cc1`, inactive: -3.41%; for `Cc1ccc2nc3c(c(C)c2c1)CC(C(Cl)Cl)S3` (configuration not stated), inactive: 2.22%. With `ClCCSc1nnc(-c2cccnc2)o1`, the inhibition of corepressor binding is inactive: 1.37%.

Regarding `CC(C)c1ccc(OP(=O)(Nc2ccccn2)Oc2ccccc2F)cc1` (configuration not stated), the inhibition of corepressor binding was inactive: -0.2%. Take `O=[N+]([O-])c1cc([N+](=O)[O-])c(-c2ccn[nH]2)s1`: the inhibition of corepressor binding was inactive: 0.17%. Take `CC(C)NC(=O)NP(=O)(Oc1ccccc1)Oc1ccccc1`: the inhibition of corepressor binding is inactive: 1.1%. In the case of `CCN(CC)C(=S)SC(NC=O)C(Cl)(Cl)Cl` (configuration not stated), the inhibition of corepressor binding is inactive: -4.32%.
